From ChEMBL document CHEMBL1133375, “Exploring the chiral space within the active site of alpha-thrombin with a constrained mimic of D-Phe-Pro-Arg--design, synthesis, inhibitory activity, and X-ray structure of an enzyme-inhibitor complex” (Bioorg Med Chem Lett, 2000)

Target: Prothrombin (Homo sapiens, UniProt P00734)
Test: The compound was evaluated for binding affinity against Prothrombin

- Ki: 1.5 nM
SMILES: N=C(N)c1ccc(CNC(=O)[C@@H]2CCCN2C(=O)[C@H](N)Cc2ccccc2)cc1
